Source: PubChem BioAssay AID492972 (The Scripps Research Institute Molecular Screening Center, 2010)
This is a selection; strong and weak results do not stand in their true shares. Calls of active or inactive are those of the source.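 How the source made its calls: active means inhibition above the screen-wide average of all tested compounds plus 3 SD (cut at about 25% in these data); inactive means the rest.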

Amino acid sequences for entries named in this document (tags omitted).
UniProt Q15102, whole entry: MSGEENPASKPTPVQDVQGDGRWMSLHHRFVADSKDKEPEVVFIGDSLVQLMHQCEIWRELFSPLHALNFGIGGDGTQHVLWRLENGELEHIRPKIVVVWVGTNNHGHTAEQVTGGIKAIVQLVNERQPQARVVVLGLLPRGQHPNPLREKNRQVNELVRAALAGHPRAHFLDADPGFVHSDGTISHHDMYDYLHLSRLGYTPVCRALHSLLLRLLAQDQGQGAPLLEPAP

These compounds were tested against Platelet-activating factor acetylhydrolase IB subunit alpha1 (Homo sapiens) (UniProt Q15102) (assay: PAFAH1B3 enzyme inhibitors, primary screen, biochemical, fluorescence polarization, human (AID 492972;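 further: 0% = enzyme with DMSO only and 100% = wells lacking PAFAH1B3 protein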)). Settings: recombinant PAFAH1B3, FP-rhodamine probe, at 3.39 µM, stronger effect = higher value.
For `CCC(=O)N(c1ccccc1)C1(COC)CCN(CCn2nnn(CC)c2=O)CC1`, the inhibition was inactive: 4.27%.
In the case of `CCC(=O)N(c1ccccc1)C1(COC)CCN(CCc2cccs2)CC1`, the inhibition is reported as inactive: 9.15%.
